In PubChem BioAssay AID624138 (Broad Institute, 2012):
The list shows a part of the results, in another mix than the full data. Some salts and complexes are drawn in separate pieces, as the source files them; their charges need not balance. The source made the active and inactive calls.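 How the source made its calls: active means compounds whose four printed spots each show fluorescence over background unusually high for their array block, chance value under 7%; inactive means the rest.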

Chains of the proteins cited; added tags and fusions are not shown.
UniProt P40763, whole entry: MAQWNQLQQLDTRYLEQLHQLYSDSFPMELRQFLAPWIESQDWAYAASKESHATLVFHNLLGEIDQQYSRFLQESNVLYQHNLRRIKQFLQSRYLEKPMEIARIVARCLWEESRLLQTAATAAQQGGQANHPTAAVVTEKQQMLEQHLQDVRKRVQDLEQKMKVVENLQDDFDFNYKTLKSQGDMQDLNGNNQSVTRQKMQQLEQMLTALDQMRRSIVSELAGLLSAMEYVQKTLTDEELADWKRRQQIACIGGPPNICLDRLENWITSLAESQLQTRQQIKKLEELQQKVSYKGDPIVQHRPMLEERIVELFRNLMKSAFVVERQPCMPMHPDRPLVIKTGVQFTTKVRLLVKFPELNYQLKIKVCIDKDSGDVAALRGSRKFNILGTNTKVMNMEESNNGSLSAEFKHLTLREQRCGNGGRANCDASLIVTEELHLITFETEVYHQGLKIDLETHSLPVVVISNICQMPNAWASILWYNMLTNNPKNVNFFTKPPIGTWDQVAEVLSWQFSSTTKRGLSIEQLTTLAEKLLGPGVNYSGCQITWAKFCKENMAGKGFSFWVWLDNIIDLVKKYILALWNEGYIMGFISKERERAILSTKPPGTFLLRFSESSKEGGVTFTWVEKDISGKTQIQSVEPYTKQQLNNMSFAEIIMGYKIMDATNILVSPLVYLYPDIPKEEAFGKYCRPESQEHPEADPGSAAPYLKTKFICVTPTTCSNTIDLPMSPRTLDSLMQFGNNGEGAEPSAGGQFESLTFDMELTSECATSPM

biological target: Signal transducer and activator of transcription 3 (Homo sapiens) (UniProt P40763); experiment: small molecules binding His-tagged STAT3 – biochemical, small molecule microarray, single point, set 2, primary screen (AID 624138); conditions: anti-His fluorescence

Row | SMILES | outcome
1 | C/C1=C2N=C(/C=C3N=C(/C(C)=C4\[N-][C@@](C)([C@@H]5N=C1[C@](C)(CCC(=O)NC[C@@H](C)OP(=O)(O)O[C@H]1[C@@H](O)[C@@H](n6cnc7cc(C)c(C)cc76)O[C@@H]1CO)[C@H]5CC(N)=O)[C@@](C)(CC(N)=O)[C@@H]4CCC(N)=O)[C@@](C)(CC(N)=O)[C@@H]\3CCC(N)=O)C(C)(C)[C@@H]/2CCC(N)=O.[C-]#N.[Co+3] | inactive
2 | CN(C(=O)Cc1ccc(Cl)c(Cl)c1)C1CCCCC1N1CCCC1 (stereo unspecified) | inactive
3 | C=CC1C=C(C)C/C(=N\P(=O)(Oc2ccccc2)Oc2ccccc2)N1Cc1ccc(OC)cc1 (stereo unspecified) | inactive
4 | C/C1=C2N=C(/C=C3N=C(/C(C)=C4\[N-][C@@](C)([C@@H]5N=C1[C@](C)(CCC(=O)NCC(C)OP(=O)(O)O[C@@H]1[C@H](O)[C@H](n6cnc7cc(C)c(C)cc76)O[C@H]1CO)[C@H]5CC(N)=O)[C@@](C)(CC(N)=O)[C@@H]4CCC(N)=O)[C@@](C)(CC(N)=O)[C@@H]\3CCC(N)=O)C(C)(C)[C@@H]/2CCC(N)=O.[C-]#N.[Co+3] (stereo partly specified) | inactive
5 | COc1ccc(CN2/C(=N\P(=O)(Oc3ccccc3)Oc3ccccc3)Cc3ccccc3C2C2CC2)cc1 (stereo unspecified) | inactive
6 | COc1ccc(CN2/C(=N/P(=O)(Oc3ccccc3)Oc3ccccc3)CC(C)=CC2C)cc1 (stereo unspecified) | inactive
